Source: ChEMBL document CHEMBL6092202, “4-Anilinoquinazoline Derivatives as the First Potent NOD1-RIPK2 Signaling Pathway Inhibitors at the Nanomolar Range” (J Med Chem, 2024)
Activity calls are given as the source filed them.

By UniProt entry, the sequences of proteins in these tests, tags left out. Where a name states a change or a piece, a line headed by the entry shows the natural chain unless it says otherwise.
UniProt P36896: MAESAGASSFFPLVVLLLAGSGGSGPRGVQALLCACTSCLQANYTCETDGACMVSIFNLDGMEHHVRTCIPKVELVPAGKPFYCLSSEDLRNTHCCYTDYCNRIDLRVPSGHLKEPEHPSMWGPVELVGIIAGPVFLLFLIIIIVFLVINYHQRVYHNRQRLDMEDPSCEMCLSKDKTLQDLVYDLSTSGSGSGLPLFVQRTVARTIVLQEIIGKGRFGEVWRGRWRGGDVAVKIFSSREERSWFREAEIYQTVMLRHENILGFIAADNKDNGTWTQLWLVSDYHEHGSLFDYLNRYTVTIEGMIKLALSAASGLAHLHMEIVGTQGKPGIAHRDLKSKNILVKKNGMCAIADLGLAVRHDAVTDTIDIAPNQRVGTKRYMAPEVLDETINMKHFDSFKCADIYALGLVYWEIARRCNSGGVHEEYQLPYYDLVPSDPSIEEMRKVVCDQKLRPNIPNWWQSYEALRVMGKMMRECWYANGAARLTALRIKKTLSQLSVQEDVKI
UniProt P52333: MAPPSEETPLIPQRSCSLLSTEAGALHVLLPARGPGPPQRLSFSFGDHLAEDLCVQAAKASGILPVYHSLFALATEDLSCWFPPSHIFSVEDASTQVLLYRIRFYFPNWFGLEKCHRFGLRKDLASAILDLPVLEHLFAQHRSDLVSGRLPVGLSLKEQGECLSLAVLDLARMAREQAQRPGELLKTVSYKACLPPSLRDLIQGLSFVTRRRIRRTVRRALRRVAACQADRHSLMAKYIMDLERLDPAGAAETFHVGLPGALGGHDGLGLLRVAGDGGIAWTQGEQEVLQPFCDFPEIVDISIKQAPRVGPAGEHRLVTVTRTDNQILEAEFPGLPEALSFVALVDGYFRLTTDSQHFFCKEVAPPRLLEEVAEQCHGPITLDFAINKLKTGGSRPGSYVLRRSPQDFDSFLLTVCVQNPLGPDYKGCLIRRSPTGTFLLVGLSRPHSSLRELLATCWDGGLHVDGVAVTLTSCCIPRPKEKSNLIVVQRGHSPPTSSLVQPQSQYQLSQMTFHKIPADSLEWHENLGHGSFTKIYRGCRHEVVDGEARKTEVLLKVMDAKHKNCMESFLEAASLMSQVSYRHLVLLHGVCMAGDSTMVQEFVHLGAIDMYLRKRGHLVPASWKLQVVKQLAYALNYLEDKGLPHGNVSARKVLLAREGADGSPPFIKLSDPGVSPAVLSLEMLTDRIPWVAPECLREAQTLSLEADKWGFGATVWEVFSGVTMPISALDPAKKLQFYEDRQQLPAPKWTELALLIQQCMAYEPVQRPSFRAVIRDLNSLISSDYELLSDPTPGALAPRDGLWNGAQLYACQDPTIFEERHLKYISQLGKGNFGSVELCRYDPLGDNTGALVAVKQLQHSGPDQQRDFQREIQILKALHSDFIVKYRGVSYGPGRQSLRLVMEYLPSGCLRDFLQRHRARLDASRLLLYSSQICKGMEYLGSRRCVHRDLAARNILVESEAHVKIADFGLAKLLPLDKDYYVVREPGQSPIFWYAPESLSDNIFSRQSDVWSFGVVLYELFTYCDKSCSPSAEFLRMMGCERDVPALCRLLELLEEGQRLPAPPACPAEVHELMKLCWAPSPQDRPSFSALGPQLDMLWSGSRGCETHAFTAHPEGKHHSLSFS
UniProt P09619, whole entry: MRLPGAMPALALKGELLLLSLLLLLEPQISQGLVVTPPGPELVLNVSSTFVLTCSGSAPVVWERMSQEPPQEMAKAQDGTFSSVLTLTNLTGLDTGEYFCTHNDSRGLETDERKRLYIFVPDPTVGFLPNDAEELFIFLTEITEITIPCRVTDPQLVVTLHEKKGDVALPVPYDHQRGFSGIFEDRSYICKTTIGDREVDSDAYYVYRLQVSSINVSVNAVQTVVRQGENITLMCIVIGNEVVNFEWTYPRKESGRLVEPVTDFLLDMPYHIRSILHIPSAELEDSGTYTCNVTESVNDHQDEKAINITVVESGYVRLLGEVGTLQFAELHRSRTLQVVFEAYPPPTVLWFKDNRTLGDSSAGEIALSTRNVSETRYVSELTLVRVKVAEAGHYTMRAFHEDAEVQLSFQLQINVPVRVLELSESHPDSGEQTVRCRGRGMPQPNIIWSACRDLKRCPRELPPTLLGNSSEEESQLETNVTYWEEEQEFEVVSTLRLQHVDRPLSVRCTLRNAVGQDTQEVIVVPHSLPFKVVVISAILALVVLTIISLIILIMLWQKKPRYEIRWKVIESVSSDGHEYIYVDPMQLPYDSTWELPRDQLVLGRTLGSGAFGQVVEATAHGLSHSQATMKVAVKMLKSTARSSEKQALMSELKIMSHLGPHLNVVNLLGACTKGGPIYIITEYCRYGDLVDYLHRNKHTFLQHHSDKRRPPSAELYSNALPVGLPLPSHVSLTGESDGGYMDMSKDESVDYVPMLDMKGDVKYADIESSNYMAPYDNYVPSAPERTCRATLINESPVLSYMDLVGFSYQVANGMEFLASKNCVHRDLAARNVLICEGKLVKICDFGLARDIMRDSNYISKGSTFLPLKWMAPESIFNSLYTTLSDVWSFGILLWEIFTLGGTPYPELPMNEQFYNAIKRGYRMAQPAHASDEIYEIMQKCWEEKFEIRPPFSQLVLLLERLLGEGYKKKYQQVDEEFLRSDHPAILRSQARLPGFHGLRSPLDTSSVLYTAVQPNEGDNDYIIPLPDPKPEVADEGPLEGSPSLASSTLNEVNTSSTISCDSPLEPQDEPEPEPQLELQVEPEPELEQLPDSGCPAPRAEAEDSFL
UniProt Q9HCP0: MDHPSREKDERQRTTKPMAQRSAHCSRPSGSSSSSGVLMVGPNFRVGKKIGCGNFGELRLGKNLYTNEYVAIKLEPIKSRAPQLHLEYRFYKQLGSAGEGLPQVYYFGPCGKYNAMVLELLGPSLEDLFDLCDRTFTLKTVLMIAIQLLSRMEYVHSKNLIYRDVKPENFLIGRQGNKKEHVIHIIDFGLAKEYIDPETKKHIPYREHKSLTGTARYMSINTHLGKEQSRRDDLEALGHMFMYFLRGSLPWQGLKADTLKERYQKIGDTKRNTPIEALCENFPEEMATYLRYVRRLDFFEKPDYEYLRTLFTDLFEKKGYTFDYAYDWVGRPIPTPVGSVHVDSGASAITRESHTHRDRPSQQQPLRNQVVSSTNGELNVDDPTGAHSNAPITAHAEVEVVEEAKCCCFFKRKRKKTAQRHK
UniProt P68400, whole entry, looked up: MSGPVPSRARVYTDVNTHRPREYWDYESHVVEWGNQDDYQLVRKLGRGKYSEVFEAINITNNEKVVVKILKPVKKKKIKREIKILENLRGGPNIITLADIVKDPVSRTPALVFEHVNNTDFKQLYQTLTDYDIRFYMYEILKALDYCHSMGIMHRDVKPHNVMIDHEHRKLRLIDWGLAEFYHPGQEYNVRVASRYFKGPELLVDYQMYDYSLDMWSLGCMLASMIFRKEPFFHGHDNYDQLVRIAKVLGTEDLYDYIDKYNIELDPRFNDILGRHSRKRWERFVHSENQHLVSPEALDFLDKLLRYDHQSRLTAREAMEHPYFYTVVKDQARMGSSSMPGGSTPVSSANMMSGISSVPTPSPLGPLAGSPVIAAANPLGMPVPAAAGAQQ
UniProt Q16539, whole entry: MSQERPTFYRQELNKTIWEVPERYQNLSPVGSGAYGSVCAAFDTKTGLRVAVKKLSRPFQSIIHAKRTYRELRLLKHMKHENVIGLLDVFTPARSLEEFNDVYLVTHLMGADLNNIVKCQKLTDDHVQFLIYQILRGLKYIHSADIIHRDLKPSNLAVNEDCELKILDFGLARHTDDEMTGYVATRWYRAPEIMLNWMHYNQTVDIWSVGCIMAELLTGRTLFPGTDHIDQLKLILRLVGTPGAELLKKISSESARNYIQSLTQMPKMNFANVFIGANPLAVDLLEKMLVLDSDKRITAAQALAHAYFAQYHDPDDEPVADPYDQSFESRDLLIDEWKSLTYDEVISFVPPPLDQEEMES
UniProt P24864, whole entry, looked up: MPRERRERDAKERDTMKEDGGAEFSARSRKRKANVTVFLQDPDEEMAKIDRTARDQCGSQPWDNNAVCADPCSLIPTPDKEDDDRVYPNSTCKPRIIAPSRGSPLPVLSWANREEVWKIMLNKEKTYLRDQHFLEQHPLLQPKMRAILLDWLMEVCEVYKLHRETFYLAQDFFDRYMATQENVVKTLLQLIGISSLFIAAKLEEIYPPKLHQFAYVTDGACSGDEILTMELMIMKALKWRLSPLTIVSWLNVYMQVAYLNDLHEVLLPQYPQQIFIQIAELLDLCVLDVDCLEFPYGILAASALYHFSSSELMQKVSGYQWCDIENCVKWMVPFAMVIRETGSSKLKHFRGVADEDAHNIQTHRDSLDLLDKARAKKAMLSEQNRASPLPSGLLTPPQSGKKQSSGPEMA
UniProt Q13153, whole entry, looked up: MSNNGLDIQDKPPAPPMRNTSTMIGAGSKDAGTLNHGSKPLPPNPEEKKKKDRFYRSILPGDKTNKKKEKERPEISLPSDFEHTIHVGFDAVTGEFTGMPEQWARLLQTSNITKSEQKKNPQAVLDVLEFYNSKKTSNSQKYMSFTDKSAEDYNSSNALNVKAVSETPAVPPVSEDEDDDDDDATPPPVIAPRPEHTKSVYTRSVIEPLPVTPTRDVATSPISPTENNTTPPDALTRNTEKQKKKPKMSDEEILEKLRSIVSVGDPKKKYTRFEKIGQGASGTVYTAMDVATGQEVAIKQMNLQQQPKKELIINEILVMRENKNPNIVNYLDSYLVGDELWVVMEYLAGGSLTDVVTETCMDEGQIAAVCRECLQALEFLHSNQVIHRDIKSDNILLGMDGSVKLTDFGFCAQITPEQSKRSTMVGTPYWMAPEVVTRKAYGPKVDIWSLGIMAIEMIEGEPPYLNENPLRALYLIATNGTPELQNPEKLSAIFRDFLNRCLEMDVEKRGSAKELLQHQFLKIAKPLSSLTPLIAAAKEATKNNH
UniProt P60953, whole entry, looked up: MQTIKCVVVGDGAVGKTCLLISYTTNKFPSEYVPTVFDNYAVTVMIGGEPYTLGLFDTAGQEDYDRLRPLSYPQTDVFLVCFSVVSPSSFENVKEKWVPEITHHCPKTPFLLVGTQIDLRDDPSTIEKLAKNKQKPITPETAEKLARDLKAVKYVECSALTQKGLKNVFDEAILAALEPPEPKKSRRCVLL
UniProt P53355: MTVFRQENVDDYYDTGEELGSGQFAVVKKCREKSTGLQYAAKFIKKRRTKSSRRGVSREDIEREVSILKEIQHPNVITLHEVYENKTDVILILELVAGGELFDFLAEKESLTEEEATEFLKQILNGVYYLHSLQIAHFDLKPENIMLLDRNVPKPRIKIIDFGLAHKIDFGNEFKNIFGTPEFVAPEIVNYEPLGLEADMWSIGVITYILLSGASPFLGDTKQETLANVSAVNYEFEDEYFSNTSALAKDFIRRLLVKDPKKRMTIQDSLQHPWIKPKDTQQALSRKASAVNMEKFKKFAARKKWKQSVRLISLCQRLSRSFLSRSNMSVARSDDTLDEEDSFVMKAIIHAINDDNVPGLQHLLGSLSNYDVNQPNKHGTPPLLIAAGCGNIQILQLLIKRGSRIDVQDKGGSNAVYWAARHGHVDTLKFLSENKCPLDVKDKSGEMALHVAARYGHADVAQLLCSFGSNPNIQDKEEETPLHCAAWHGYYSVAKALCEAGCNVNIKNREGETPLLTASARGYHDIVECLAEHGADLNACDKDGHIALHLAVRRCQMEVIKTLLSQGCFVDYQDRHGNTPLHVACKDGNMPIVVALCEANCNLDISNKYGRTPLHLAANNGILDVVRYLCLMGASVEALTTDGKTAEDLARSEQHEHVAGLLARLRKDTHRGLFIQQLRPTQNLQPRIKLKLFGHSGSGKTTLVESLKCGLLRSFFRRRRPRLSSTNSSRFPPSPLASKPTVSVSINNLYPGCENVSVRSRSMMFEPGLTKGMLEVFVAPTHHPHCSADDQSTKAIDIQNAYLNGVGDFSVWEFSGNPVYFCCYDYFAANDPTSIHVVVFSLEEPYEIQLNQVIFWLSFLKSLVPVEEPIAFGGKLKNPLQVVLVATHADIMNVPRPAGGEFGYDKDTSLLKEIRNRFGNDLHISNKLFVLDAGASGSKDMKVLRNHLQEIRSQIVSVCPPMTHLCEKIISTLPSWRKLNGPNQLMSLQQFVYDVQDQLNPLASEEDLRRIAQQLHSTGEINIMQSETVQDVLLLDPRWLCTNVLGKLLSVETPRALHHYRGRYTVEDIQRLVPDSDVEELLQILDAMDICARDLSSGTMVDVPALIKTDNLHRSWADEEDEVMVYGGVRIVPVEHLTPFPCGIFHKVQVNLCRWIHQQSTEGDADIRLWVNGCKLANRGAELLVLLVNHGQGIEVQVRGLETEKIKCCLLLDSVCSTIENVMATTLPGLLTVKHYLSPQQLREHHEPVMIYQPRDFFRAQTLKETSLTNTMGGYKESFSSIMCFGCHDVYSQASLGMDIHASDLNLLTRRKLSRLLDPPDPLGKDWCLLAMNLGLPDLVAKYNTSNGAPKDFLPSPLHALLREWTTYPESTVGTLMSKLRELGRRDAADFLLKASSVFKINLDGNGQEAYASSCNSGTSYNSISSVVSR

Assays:
[1] = molecular target: Mitogen-activated protein kinase kinase kinase 20 (Homo sapiens) (UniProt Q9NYL2); assay: Inhibition of human ZAK assessed as residual activity at 1 uM relative to control
[2] = molecular target: TGF-beta receptor type-2 (Homo sapiens) (UniProt P37173); assay: Inhibition of human TGFbetaR2 assessed as residual activity at 1 uM relative to control
TAK1/TAB1 (Homo sapiens) = TAK1/TAB1 (Homo sapiens) (UniProt Q15750+O43318); assay: Inhibition of human TAK1-TAB1 assessed as residual activity at 1 uM relative to control; assay type: protein-complex assay
Homo sapiens [3] = species: Homo sapiens; assay: Inhibition of human MLK2 assessed as residual activity at 1 uM relative to control
[4] = molecular target: Interleukin-1 receptor-associated kinase 4 (Homo sapiens) (UniProt Q9NWZ3); assay: Inhibition of human IRAK4 assessed as residual activity at 1 uM relative to control
[5] = molecular target: Activin receptor type-1B (Homo sapiens) (UniProt P36896); assay: Inhibition of human ALK4 assessed as residual activity at 1 uM relative to control
[6] = molecular target: Activin receptor type-1 (Homo sapiens) (UniProt Q04771); assay: Inhibition of human ALK2 assessed as residual activity at 1 uM relative to control
[7] = molecular target: Tyrosine-protein kinase SYK (Homo sapiens) (UniProt P43405); assay: Inhibition of human SYK assessed as residual activity at 1 uM relative to control
[8] = molecular target: Tyrosine-protein kinase Lck (Homo sapiens) (UniProt P06239); assay: Inhibition of human LCK assessed as residual activity at 1 uM relative to control
[9] = molecular target: Tyrosine-protein kinase JAK3 (Homo sapiens) (UniProt P52333); assay: Inhibition of human JACK3 assessed as residual activity at 1 uM relative to control
[10] = molecular target: Fibroblast growth factor receptor 1 (Homo sapiens) (UniProt P11362); assay: Inhibition of human FGFR1 assessed as residual activity at 1 uM relative to control
[11] = molecular target: Platelet-derived growth factor receptor beta (Homo sapiens) (UniProt P09619); assay: Inhibition of human PDGFRbeta assessed as residual activity at 1 uM relative to control
[12] = molecular target: Platelet-derived growth factor receptor alpha (Homo sapiens) (UniProt P16234); assay: Inhibition of human PDGFRalpha assessed as residual activity at 1 uM relative to control
[13] = molecular target: Insulin receptor (Homo sapiens) (UniProt P06213); assay: Inhibition of human INSR assessed as residual activity at 1 uM relative to control
[14] = molecular target: Insulin-like growth factor 1 receptor (Homo sapiens) (UniProt P08069); assay: Inhibition of human IGF1R assessed as residual activity at 1 uM relative to control
[15] = molecular target: Receptor tyrosine-protein kinase erbB-4 (Homo sapiens) (UniProt Q15303); assay: Inhibition of human HER4 assessed as residual activity at 1 uM relative to control
[16] = molecular target: Receptor tyrosine-protein kinase erbB-2 (Homo sapiens) (UniProt P04626); assay: Inhibition of human HER2 assessed as residual activity at 1 uM relative to control
[17] = molecular target: Casein kinase I isoform gamma-1 (Homo sapiens) (UniProt Q9HCP0); assay: Inhibition of human CK1gamma1 assessed as residual activity at 1 uM relative to control
[18] = molecular target: Casein kinase I isoform alpha (Homo sapiens) (UniProt P48729); assay: Inhibition of human CK1alpha1 assessed as residual activity at 1 uM relative to control
[19] = molecular target: Inhibitor of nuclear factor kappa-B kinase subunit beta (Homo sapiens) (UniProt O14920); assay: Inhibition of human IKKb assessed as residual activity at 1 uM relative to control
[20] = molecular target: Casein kinase II subunit alpha (Homo sapiens) (UniProt P68400); assay: Inhibition of human CK2a1 assessed as residual activity at 1 uM relative to control
[21] = molecular target: Aurora kinase A (Homo sapiens) (UniProt O14965); assay: Inhibition of human Aurora A assessed as residual activity at 1 uM relative to control
[22] = molecular target: Rho-associated protein kinase 1 (Homo sapiens) (UniProt Q13464); assay: Inhibition of human ROCK1 assessed as residual activity at 1 uM relative to control
[23] = molecular target: Protein kinase C alpha type (Homo sapiens) (UniProt P17252); assay: Inhibition of human PKCalpha assessed as residual activity at 1 uM relative to control
[24] = molecular target: RAC-alpha serine/threonine-protein kinase (Homo sapiens) (UniProt P31749); assay: Inhibition of human AKT1 assessed as residual activity at 1 uM relative to control
[25] = molecular target: Mitogen-activated protein kinase 14 (Homo sapiens) (UniProt Q16539); assay: Inhibition of human p38alpha assessed as residual activity at 1 uM relative to control
[26] = molecular target: Glycogen synthase kinase-3 beta (Homo sapiens) (UniProt P49841); assay: Inhibition of human GSK3beta assessed as residual activity at 1 uM relative to control
[27] = molecular target: Cyclin-dependent kinase 2/cyclin E1 (Homo sapiens) (UniProt P24864+P24941); assay: Inhibition of human CDK2/Cyclin E1 assessed as residual activity at 1 uM relative to control; assay type: protein-complex assay
[28] = molecular target: PAK 1/CDC42 (Homo sapiens) (UniProt Q13153+P60953); assay: Inhibition of human PAK1/CDC42 assessed as residual activity at 1 uM relative to control; assay type: protein-complex assay
[29] = molecular target: Misshapen-like kinase 1 (Homo sapiens) (UniProt Q8N4C8); assay: Inhibition of human MINK1 assessed as residual activity at 1 uM relative to control
[30] = molecular target: MAP kinase-activated protein kinase 2 (Homo sapiens) (UniProt P49137); assay: Inhibition of human MAPKAPK2 assessed as residual activity at 1 uM relative to control
[31] = molecular target: Death-associated protein kinase 1 (Homo sapiens) (UniProt P53355); assay: Inhibition of human DAPK1 assessed as residual activity at 1 uM relative to control
[32] = molecular target: Serine/threonine-protein kinase Chk1 (Homo sapiens) (UniProt O14757); assay: Inhibition of human CHK1 assessed as residual activity at 1 uM relative to control
[33] = molecular target: Calcium/calmodulin-dependent protein kinase type IV (Homo sapiens) (UniProt Q16566); assay: Inhibition of human CAMK4 assessed as residual activity at 1 uM relative to control
Homo sapiens [34] = species: Homo sapiens; assay: Inhibition of human AMPKalpha2/beta1/gamma1 assessed as residual activity at 1 uM relative to control
HEK-Blue hNOD1 = assay: Anti-inflammatory activity in HEK-Blue hNOD1 cells assessed as reduction in C12-iE-DAP stimulated IL-8 secretion at 0.001 to 1 uM preincubated for 1 hr followed by C12-iE-DAP addition and measured after 22 hrs by fluorescence based analysis; assay type: functional, cell-based; details: Homo sapiens, dose 0.001-1 µM, time 23.0 hrs

Measured: Activity

CCN(CC)CCOc1cc2ncnc(Nc3cc(OC)c(Cl)cc3Cl)c2cc1OC
active: HEK-Blue hNOD1
> 60%: [1] | [2] | TAK1/TAB1 (Homo sapiens) | Homo sapiens [3] | [4] | [7] | [9] | [10] | [11] | [12] | [14] | [15] | [17] | [18] | [19] | [20] | [21] | [22] | [23] | [24] | [25] | [26] | [27] | [28] | [29] | [30] | [31] | [32] | [33] | Homo sapiens [34]
20%: [5] | [16]
< 20%: [6] | [8] | [13]
